Laboratory results: US9173871B2, “Oxazole and thiazole compounds as beta-catenin modulators and uses thereof” (New York University, priority 2008, dated 2015)

Protein sequences, listed by entry. Tags and fused reporters are not part of them. Residues count along the entry.
UniProt P35222, 2-781 limits assumed: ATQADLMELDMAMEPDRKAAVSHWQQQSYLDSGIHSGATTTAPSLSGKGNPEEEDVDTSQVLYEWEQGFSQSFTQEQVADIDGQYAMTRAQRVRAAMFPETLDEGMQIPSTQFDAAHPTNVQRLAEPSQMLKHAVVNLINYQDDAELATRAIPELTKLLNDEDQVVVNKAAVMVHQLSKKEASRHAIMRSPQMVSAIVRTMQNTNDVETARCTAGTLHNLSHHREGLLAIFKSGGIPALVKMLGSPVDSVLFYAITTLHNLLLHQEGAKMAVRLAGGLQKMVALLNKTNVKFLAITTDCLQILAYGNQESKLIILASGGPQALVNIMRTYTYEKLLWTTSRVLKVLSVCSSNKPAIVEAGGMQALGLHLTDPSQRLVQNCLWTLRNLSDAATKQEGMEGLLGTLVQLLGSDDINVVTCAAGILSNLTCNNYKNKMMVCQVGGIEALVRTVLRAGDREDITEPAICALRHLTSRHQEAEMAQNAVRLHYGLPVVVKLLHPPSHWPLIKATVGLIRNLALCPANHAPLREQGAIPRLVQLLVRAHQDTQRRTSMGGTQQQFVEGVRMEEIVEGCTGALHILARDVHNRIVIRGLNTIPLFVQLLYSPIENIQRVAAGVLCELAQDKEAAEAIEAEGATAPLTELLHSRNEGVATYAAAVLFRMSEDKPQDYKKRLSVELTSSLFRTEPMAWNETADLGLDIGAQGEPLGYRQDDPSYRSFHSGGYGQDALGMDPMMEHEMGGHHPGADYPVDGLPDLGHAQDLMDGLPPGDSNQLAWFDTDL
UniProt P35222, whole entry, species assumed: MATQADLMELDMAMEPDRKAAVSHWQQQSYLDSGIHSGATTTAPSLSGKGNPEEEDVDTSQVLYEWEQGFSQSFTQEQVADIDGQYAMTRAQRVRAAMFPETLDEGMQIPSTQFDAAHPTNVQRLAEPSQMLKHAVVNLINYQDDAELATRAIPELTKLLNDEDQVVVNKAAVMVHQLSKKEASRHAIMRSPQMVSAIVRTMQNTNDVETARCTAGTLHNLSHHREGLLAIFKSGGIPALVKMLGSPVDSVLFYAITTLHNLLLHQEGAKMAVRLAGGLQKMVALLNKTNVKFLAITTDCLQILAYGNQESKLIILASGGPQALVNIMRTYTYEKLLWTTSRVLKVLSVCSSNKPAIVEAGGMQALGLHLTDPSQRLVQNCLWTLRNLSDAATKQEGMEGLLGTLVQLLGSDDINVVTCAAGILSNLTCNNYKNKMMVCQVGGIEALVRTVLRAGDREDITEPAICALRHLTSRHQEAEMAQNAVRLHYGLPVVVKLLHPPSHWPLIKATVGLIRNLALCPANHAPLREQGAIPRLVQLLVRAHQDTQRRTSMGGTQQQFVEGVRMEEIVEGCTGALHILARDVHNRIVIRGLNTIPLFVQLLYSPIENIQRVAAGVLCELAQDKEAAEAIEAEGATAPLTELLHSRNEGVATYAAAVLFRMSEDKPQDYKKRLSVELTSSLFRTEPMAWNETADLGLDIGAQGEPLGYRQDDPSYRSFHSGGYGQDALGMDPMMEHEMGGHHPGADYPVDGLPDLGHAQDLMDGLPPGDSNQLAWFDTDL

How the values were obtained:
[1] = molecular target: T1, AR and β-catenin interaction (Homo sapiens, UniProt P35222); assay: Co-immunoprecipitation of AR and β-catenin from LNCaP nuclear extracts; assay type: cell-based; conditions: 10 nM R1881, 20 μM C3, 4 hr
T1 construct: Nuclear extracts were immunoprecipitated with anti-AR antibody or normal mouse IgG; endogenous in cells; host or cells: LNCaP cells (nuclear extracts)
Method: (§1) A) LNCaP cells were androgen-deprived for 48 hr and then treated with vehicle or 10 nM R1881 with or without 20 μM C3 for 4 hr. Nuclear extracts were immunoprecipitated with anti-AR antibody or normal mouse IgG followed by immunoblotting (IB) with indicated antibodies. B) LNCaP cells were hormone deprived for 3 days and then treated with vehicle or 100 nM DHT with or without 20 μM C3 for 2, 4 or 16 hr. Cells were crosslinked and chromatin was immunoprecipitated with β-catenin or IgG antibody. The precipitated DNA of the PSA enhancer was analyzed by Q-PCR. The results are presented as a percentage of input.
(§2) 280(45): 37853-67; Yumoto et al., Proc Natl Acad Sci USA, 2012. 109(1): 143-8]. […] To test this hypothesis, LNCaP cells were treated with 10 nMR1881 in the presence or absence of C3.

[2] = molecular target: T2, β-catenin on the PSA enhancer (Homo sapiens, UniProt P35222); assay: Chromatin immunoprecipitation (ChIP) of β-catenin on the PSA enhancer in LNCaP cells; assay type: cell-based; conditions: 100 nM DHT, 20 μM C3
T2 construct: Cells were crosslinked and chromatin was immunoprecipitated with β-catenin or IgG antibody; endogenous in cells; host or cells: LNCaP cells
Method: as §1, §2

[3] = molecular target: β-catenin and TCF4 interaction (Homo sapiens, UniProt P35222); conditions: Gonsalves et al., PNAS 2011; cited from earlier work

For `CCc1ccc(-c2nc(CSCC(=O)NCCc3ccccc3)c(C)o2)cc1` [Compound C3], the “AR interaction with β-catenin” value [1] is given as “greatly diminishes”, the “β-catenin on the PSA enhancer (ChIP)” value [2] is given as “diminished” and the “β-catenin and TCF4 interaction” value [3] is given as “interferes”.
